According to publication PMC9907071 (Proceedings of the National Academy of Sciences of the …, 2022):

How the values were obtained:
AbDHODH = target: T1, AbDHODH (Acinetobacter baumannii, UniProt B7GZW7); assay: AbDHODH steady-state rate assay; format: biochemical; conditions: matched imidazopyrimidine vs triazolopyrimidine
T1 sequence (B7GZW7 1-334): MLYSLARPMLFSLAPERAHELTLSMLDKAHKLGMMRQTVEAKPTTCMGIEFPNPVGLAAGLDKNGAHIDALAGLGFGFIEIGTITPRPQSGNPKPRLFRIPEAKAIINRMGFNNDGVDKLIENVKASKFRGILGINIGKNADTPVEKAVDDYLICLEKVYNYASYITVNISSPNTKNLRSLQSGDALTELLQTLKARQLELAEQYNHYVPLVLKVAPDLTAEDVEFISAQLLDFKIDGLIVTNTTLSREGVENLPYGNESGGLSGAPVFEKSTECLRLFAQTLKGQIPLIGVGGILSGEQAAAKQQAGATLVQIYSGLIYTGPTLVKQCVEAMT

A. baumannii AB307-0294 = assay: Antimicrobial susceptibility testing in MM; format: cell-based, Acinetobacter baumannii
[1] = system: A. baumannii HUMC1 (CR-XDR); assay: Antimicrobial susceptibility testing in MM; format: cell-based, Acinetobacter baumannii; conditions: HUMC1 and LAC-4 vs AB307
A. baumannii AB307 = conditions: 1 × 10^9 CFU AB307 plated on MM + 1 µg/mL
A. baumannii HUMC1 = conditions: 1 × 10^9 CFU HUMC1 plated on MM + 1 µg/mL

Cc1cc(Nc2ccc(S(F)(F)(F)(F)F)cc2)n2ccnc2n1 [DSM186]
fold more potent than DSM161 on AbDHODH (AbDHODH): 10 fold
fold EC50 for antibacterial activity on AB307 higher than enzyme inhibition (A. baumannii AB307-0294): ~ 2 fold
fold difference in potency, drug-resistant strains vs drug-sensitive AB307 [1]: 3 fold
breakthrough growth (preexisting resistance) (A. baumannii AB307): No breakthrough growth occurred
breakthrough growth (preexisting resistance) (A. baumannii HUMC1): No breakthrough growth occurred
